Data: PubChem BioAssay (NCI)
This is a selection; strong and weak results do not stand in their true shares. Some salts and complexes are drawn in separate pieces, as the source files them; their charges need not balance. The source made the active and inactive calls. Cut-off read from the data, not from the text of the source: active = growth inhibition above about 70%; inactive = the rest.

Experiments:
[1] = NCI Yeast Anticancer Drug Screen. Data for the rad50 strain (AID 155);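 note: 0% = growth of vehicle-only cultures of the same strain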; conditions: S. cerevisiae rad50 strain growth inhibition; at 50.0 µM; active compounds read high
[2] = NCI Yeast Anticancer Drug Screen. Data for the mec2-1 strain (AID 157); conditions: S. cerevisiae mec2-1 strain, at 50.0 µM, active compounds read high
[3] = NCI Yeast Anticancer Drug Screen. Data for the sgs1 mgt1 strain (AID 161);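 note: 0% = growth of cultures given vehicle only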; conditions: S. cerevisiae sgs1 mgt1 strain, at 50.0 µM, active compounds read high
[4] = NCI Yeast Anticancer Drug Screen. Data for the cln2 rad14 strain (AID 165);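 note: 0% = growth equal to vehicle treated cultures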; conditions: S. cerevisiae cln2 rad14 strain, at 50.0 µM, active compounds read high
[5] = NCI Yeast Anticancer Drug Screen. Data for the bub3 strain (AID 167); conditions: S. cerevisiae bub3 mutant strain, at 50.0 µM, active compounds read high
[6] = NCI Yeast Anticancer Drug Screen. Data for the mlh1 rad18 strain (AID 175); conditions: S. cerevisiae mlh1 rad18 strain growth inhibition; at 50.0 µM; active compounds read high

Measured: growth inhibition

ClCCN(CCCl)c1cccc(CN2CCCC2)c1.O=[N+]([O-])c1cc([N+](=O)[O-])c(O)c([N+](=O)[O-])c1
inactive: [1] 19.2% | [2] 3.9% | [3] 38.9% | [4] 38% | [5] 37.5% | [6] 48.8%

CCN(CC)C1C=CCCC1.O=[N+]([O-])c1cc([N+](=O)[O-])c(O)c([N+](=O)[O-])c1
inactive: [1] 24.2% | [2] 7.3% | [3] 23.6% | [4] -4.95% | [5] -0.85% | [6] 17.2%

CCC(O)(CN1CCCCC1)C1Cc2ccccc2O1.O=[N+]([O-])c1cc([N+](=O)[O-])c(O)c([N+](=O)[O-])c1 (stereo not given)
inactive: [1] 6.05% | [2] 24.4% | [3] 43.4% | [4] 5.5% | [5] 14.3% | [6] 45.5%

CC(C)OP(C)(=O)O.[Gd]
inactive: [1] 5.85% | [2] 0.2% | [3] 10.4% | [4] -18.1% | [5] -6% | [6] 12.7%

CCCCOP(=S)(S)OCCCC.[Hg]
inactive: [1] 30.4% | [2] 17.1% | [3] 38.8% | [4] 19.9% | [5] 17.8% | [6] 12.9%

COc1nccc2ccccc12.O=[N+]([O-])c1cc([N+](=O)[O-])c(O)c([N+](=O)[O-])c1
inactive: [1] 61.3% | [2] 21.4% | [3] 45.5% | [4] 10.8% | [5] 7.4% | [6] 38.3%

O=[N+]([O-])c1cc([N+](=O)[O-])c([O-])c([N+](=O)[O-])c1.c1cc[n+]2c(c1)CCC2
inactive: [1] 7.35% | [2] -11.4% | [3] 8.1% | [4] 6.1% | [5] 4.75% | [6] 17.4%

CCCCCC(C)NCCO.O=[N+]([O-])c1cc([N+](=O)[O-])c(O)c([N+](=O)[O-])c1
inactive: [1] 35% | [2] -3.8% | [3] 23.8% | [4] -29.9% | [5] 2.45% | [6] 6.85%

CCCCOP(=O)(Cl)OCCCC
inactive: [1] -1.65% | [2] -34.6% | [3] 7.5% | [4] 13.4% | [5] 1.55% | [6] 15.2%

[C-]#[O+].[Co].[c-]1[c-][c-][cH-][c-]1.c1ccc([PH+](c2ccccc2)c2ccccc2)cc1
inactive: [1] 1.15% | [2] 5.65% | [3] -8.5% | [4] 19.1% | [5] 12.8% | [6] -6.5%

COC(=O)C(OC(C)=O)C1OC(n2cnc3c(N)ncnc32)C(OC(C)=O)C1OC(C)=O.O=[N+]([O-])c1cc([N+](=O)[O-])c(O)c([N+](=O)[O-])c1 (stereo not given)
inactive: [1] 30.8% | [2] 11.3% | [3] 27.5% | [4] 5.9% | [5] -0.25% | [6] 40.5%

CC(C)N1CCCCC1.O=[N+]([O-])c1cc([N+](=O)[O-])c(O)c([N+](=O)[O-])c1
inactive: [1] -8% | [2] -8% | [3] 3.55% | [4] -12.3% | [5] 47.2% | [6] 17.6%

CCP1(=O)Nc2ccc(Cl)cc2N1 (stereo not given)
inactive: [1] -3.3% | [2] 15.6% | [3] -1.75% | [4] -29.6% | [5] 3.6% | [6] 12.3%

CCC(C)NC(C)(C)CO.O=[N+]([O-])c1cc([N+](=O)[O-])c(O)c([N+](=O)[O-])c1
inactive: [1] 22.6% | [2] 11.2% | [3] 13.3% | [4] -15.4% | [5] -10.3% | [6] 11.2%

O=[N+]([O-])c1cn(F)c([N+](=O)[O-])n1
inactive: [1] 0.4% | [2] 2.45% | [3] 21.7% | [4] 8.25% | [5] 12.3% | [6] -8%

Cc1cc2ccc3ccccc3c2c2ccccc12.O=C1c2cc([N+](=O)[O-])ccc2-c2c1cc([N+](=O)[O-])cc2[N+](=O)[O-]
inactive: [1] 23.7% | [2] 11.6% | [3] 20.6% | [4] -8.6% | [5] 35% | [6] 47.5%

CCCCN=C(N)C(N)=NCCCC.O=[N+]([O-])c1cc([N+](=O)[O-])c(O)c([N+](=O)[O-])c1
inactive: [1] 13.2% | [2] 7.1% | [3] 10.8% | [4] -3.45% | [5] 3.25% | [6] 26.2%

CCOP(C)(=O)OC(C(F)(F)F)C(F)(F)F (stereo not given)
inactive: [1] -66.2% | [2] 2.9% | [3] -29% | [4] 8.75% | [5] 24.4% | [6] -35%

O=[N+]([O-])c1cc(Cc2cc([N+](=O)[O-])c(O)c([N+](=O)[O-])c2)cc([N+](=O)[O-])c1O
inactive: [1] 43% | [2] 9.3% | [3] 18.6% | [4] 4.35% | [5] 1.8% | [6] 30%

Cc1ccc2ccc(C)c(C)c2c1.O=[N+]([O-])c1cc([N+](=O)[O-])c(O)c([N+](=O)[O-])c1O
inactive: [1] -1.95% | [2] -30.4% | [3] -0.05% | [4] -10.9% | [5] -8.05% | [6] 1.85%

COP(C)(=O)OC.COP(C)(=O)OC.COP(C)(=O)OC.COP(C)(=O)OC.COP(C)(=O)OC.COP(C)(=O)OC.[Al+3].[O-][Cl+3]([O-])([O-])O
inactive: [1] 4.45% | [2] 9.25% | [3] 6.65% | [4] -26.6% | [5] -3.15% | [6] 26%

C[N+]1(CCCCCCCC[N+]2(C)CCCCCC2)CCCCCC1.O=[N+]([O-])c1cc([N+](=O)[O-])c(O)c([N+](=O)[O-])c1
inactive: [1] -28.3% | [2] -25.6% | [3] -25.5% | [4] -25.2% | [5] -13.6% | [6] -28.6%

CC(CO)NC1CCCC1.O=[N+]([O-])c1cc([N+](=O)[O-])c(O)c([N+](=O)[O-])c1
inactive: [1] 8.55% | [2] 1.5% | [3] 8% | [4] -20.2% | [5] -8.5% | [6] 4.2%

CP(=O)(O)O.[Zr]
inactive: [1] -18.9% | [2] -3.65% | [3] -15.9% | [4] 5.6% | [5] -5.6% | [6] 6.1%

n1nc(-c2nn[nH]n2)n[nH]1
inactive: [1] 2% | [2] -7.2% | [3] -1.35% | [4] -20.6% | [5] 5.8% | [6] 11.4%

CCCN(CCC)CCC.O=[N+]([O-])c1cc([N+](=O)[O-])c(O)c([N+](=O)[O-])c1
inactive: [1] 4.6% | [2] 2.25% | [3] 2.75% | [4] -25.2% | [5] -3.95% | [6] 13.8%

NC1CC2CC1C1CCCC21.O=[N+]([O-])c1cc([N+](=O)[O-])c(O)c([N+](=O)[O-])c1
inactive: [1] 34.5% | [2] 6.8% | [3] 32.7% | [4] 15.9% | [5] 8.1% | [6] 12.8%

COP(C)(=O)OC.COP(C)(=O)OC.COP(C)(=O)OC.COP(C)(=O)OC.COP(C)(=O)OC.COP(C)(=O)OC.[Cr+3].[O-][Cl+3]([O-])([O-])O
inactive: [1] 0.5% | [2] 3.45% | [3] -7.15% | [4] -2.95% | [5] -6.45% | [6] 19.5%

CCCCC(CC)COP(O)OCC(CC)CCCC.[Cd] (stereo not given)
inactive: [1] 22.3% | [2] 14.1% | [3] 19.8% | [4] -70.6% | [5] 17.3% | [6] 41%

CC(C)OP(C)(=O)O.[Tm]
inactive: [1] -4.6% | [2] 4.8% | [3] -0.75% | [4] -23.6% | [5] 2.15% | [6] 3.95%

CCCC[S+](N)(=O)CCC(N)P(=O)(O)O.O=[N+]([O-])c1cc([N+](=O)[O-])c([O-])c([N+](=O)[O-])c1
inactive: [1] -11.8% | [2] -7.1% | [3] 1.6% | [4] 7.1% | [5] -17.4% | [6] -1.9%

Cc1cccc(C2CCCN2C)c1.O=[N+]([O-])c1cc([N+](=O)[O-])c(O)c([N+](=O)[O-])c1
inactive: [1] 13.8% | [2] 6.7% | [3] 5.75% | [4] -3.3% | [5] -3.55% | [6] 13.4%

O.[C-]#N.[C-]#N.[C-]#N.[C-]#N.[C-]#N.[Fe+5]
inactive: [1] 2.85% | [2] -2.35% | [3] 15.1% | [4] -1.25% | [5] -1.6% | [6] -7.9%

CCN(CC)CCOC(=O)C(O)(c1ccccc1)c1cccc(C)c1 (stereo not given)
inactive: [1] -0.9% | [2] 6.65% | [3] 7.25% | [4] -11.8% | [5] -0.4% | [6] 5.55%

Nc1cccc(Cl)c1.O=[N+]([O-])c1cc([N+](=O)[O-])c(O)c([N+](=O)[O-])c1
inactive: [1] 2.4% | [2] 17.1% | [3] 11.1% | [4] -38.5% | [5] 38.2% | [6] 16.9%

CN(C)OCc1ccccc1.O=[N+]([O-])c1cc([N+](=O)[O-])c(O)c([N+](=O)[O-])c1
inactive: [1] -3.75% | [2] 0.9% | [3] 8.3% | [4] -8% | [5] -2.25% | [6] 1.6%

O=[N+]([O-])Nc1ccc(N[N+](=O)[O-])nn1
inactive: [1] 0.95% | [2] 8.85% | [3] 11.6% | [4] -32.9% | [5] 7.05% | [6] -14.7%

[N-]=[N+]=N.[N-]=[N+]=N.[Pt+2].c1ccc([PH+](c2ccccc2)c2ccccc2)cc1.c1ccc([PH+](c2ccccc2)c2ccccc2)cc1
inactive: [1] 28.7% | [2] 15.4% | [3] 16.5% | [4] -48.7% | [5] 11.2% | [6] 32.2%

CCCCC(CCCC)NC(C)CO.O=[N+]([O-])c1cc([N+](=O)[O-])c(O)c([N+](=O)[O-])c1
inactive: [1] 26.6% | [2] 1.65% | [3] 12.4% | [4] -27.4% | [5] 8.15% | [6] 19.4%

[C-]#[O+].[C-]#[O+].[C-]#[O+].[C-]#[O+].[Hg].[W].[W].[c-]1[c-][c-][cH-][c-]1.[c-]1[c-][c-][cH-][c-]1.c1ccc(O[PH+](Oc2ccccc2)Oc2ccccc2)cc1.c1ccc(O[PH+](Oc2ccccc2)Oc2ccccc2)cc1
inactive: [1] -9% | [2] -5.5% | [3] -2.1% | [4] 0.45% | [5] 3.35% | [6] -17.1%
